From paper PMC3386930, “Altering APP Proteolysis: Increasing sAPPalpha Production by Targeting Dimerization of the APP Ectodomain” (PLoS ONE, 2012) come the findings set out here.

Sequences of proteins named here, by UniProt entry; tags and fusion partners are left off. A change or cut given only in a name is not applied to a line headed by its entry.
UniProt P05067: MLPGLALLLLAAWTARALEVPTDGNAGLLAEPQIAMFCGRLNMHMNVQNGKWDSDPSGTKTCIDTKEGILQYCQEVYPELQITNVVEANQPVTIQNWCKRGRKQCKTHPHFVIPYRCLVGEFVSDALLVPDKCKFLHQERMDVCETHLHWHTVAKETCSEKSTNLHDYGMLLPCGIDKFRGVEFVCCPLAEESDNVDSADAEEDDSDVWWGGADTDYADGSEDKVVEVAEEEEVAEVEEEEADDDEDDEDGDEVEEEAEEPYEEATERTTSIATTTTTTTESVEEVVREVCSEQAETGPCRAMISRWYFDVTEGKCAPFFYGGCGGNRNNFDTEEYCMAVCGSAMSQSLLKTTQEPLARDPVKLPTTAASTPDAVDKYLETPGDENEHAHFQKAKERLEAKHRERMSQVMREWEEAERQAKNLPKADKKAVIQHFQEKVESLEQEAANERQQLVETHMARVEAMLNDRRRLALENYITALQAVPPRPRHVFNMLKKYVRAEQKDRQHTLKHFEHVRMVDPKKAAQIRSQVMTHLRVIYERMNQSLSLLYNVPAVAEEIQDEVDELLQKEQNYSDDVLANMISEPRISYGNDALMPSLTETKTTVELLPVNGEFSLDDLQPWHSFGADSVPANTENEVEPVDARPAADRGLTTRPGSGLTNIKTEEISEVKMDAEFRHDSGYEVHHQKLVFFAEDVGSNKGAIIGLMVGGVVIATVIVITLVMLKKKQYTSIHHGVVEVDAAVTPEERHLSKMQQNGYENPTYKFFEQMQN

This series in a line: Size-exclusion chromatography of Aβ fragments. The note with it: Superdex 75 column, PBS, indicates smaller dimers or monomers. It is filed as physicochemical. The protocol: All peptides were purchased from Anaspec. All of the work reported herein was performed using one peptide lot. The APP319-335 peptide and RERMS peptides were reconstituted in PBS. The Aβ peptides were reconstituted by adding 30 µl of 100 mM sodium hydroxide to 0.5 mg of peptide. Once the peptides were fully dissolved, PBS was added to bring the concentration to 10–20 µM for Aβ1-40 or Aβ1-42. The more soluble Aβ fragments were diluted to 200 µM. […] In short, the aliquots of Aβ1-40 or Aβ1-42 were incubated at 37°C for variable times and then characterized using a calibrated Superdex 75 column with PBS as the running buffer. […] The incubation times for the 7-kDa Aβ1-40, 13-kDa Aβ1-40 or 13-kDa Aβ1-42, 70-kDa Aβ1-42 and 70-kDa Aβ1-40 and >200-kDa Aβ1-42 were 15 minutes, 30 minutes, 1 hour, 18 hours and 2 hours, respectively. To fragment the >200-kDa Aβ1-42 species, each 1 ml aliquot was sonicated for three pulses of 4 seconds at 60% of maximum amplitude. […] However, the optimal incubation times to produce each type of oligomer had to be determined empirically each time the oligomers were prepared. […]
The black line indicates the starting concentration and the gold line indicates the final concentration. The arrow indicates the direction of shift of the fluorescence peak. […] The arrow indicates the direction of shift of the fluorescence peak. […]

Regarding “Aβ10-20: Aβ fragment (YEVHHQKLVFF; Amyloid-beta protein 42; UniProt P05067 681-691, looked up, fragment)”, the “elution later than the 7-kDa peak” value is on record as 0.5 mls.
